# Experimental data as given in patent US11864911B2, “Methods, apparatuses, and systems for inductive heating of foreign metallic implants” (THE BOARD OF REGENTS OF THE UNIVERSITY OF TEXAS SYSTEM, priority 2016, dated 2024).
# Tested on: Pseudomonas aeruginosa (PA01) biofilm
# Assay: ciproflaxin on PA01 biofilm on metal washers with or without prior AMF exposure, bacterial number enumerated
# Details: concentrations used, without previous initial AMF exposure
smiles,measurement,value
"O=C(O)c1cn(C2CC2)c2cc(N3CCNCC3)c(F)cc2c1=O [ciproflaxin, ciprofloxacin]",therapeutic effect for reducing the biofilm,not therapeutic
